From patent publication US7989585B2, “Chronic treatment regimen using glucagon-like insulinotropic peptides” (Eli Lilly and Company, priority 2000, dated 2011)

The chains behind the UniProt entries cited, without tags or fusion partners. Residues count along the entry.
UniProt P43220, 24-463: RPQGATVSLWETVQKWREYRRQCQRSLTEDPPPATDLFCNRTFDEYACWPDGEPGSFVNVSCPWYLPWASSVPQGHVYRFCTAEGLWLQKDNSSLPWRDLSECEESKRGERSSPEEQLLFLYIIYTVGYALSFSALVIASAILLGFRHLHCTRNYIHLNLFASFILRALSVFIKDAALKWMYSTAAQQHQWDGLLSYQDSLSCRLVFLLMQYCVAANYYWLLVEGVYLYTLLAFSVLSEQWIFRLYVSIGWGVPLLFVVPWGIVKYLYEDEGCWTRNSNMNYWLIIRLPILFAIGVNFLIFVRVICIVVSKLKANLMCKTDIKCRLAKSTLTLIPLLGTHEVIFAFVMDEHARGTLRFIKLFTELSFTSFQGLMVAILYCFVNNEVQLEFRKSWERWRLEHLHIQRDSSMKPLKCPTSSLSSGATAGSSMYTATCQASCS

Molecular target: T1, human GLP-1 receptor (Homo sapiens, UniProt P43220)
T1 construct: expressed in transfected cells; host or cells: HEK-293 Aurora CRE-BLAM cells
Assay: In vitro potency assay (CRE-BLAM fluorescence assay)
Type: cell-based
Conditions: from EC50, HEK-293 Aurora CRE-BLAM cells; Val^8-GLP-1(7-37)OH control = 1
Excerpt: The assay is discussed in more detail on page 17 and in example 3.
These HEK-293 cells have stably integrated a DNA vector having a cAMP response element (CRE) driving expression of the β-lactamase (BLAM) gene. […] The assay is further described in Zlokarnik, et al. (1998) Science 279:84-88 (See also Example 3).
The day after seeding, the medium is replaced with plasma free medium.

In vitro activity relative to Val^8-GLP-1(7-37)OH: 1.50
Substance: GLP-1(7-36)NH2 [reference compound]
